For 2 molecules, IC50 results are on record in patent US20240425496A1, “AZETIDINYL PYRIMIDINES AND USES THEREOF” (Aerie Pharmaceuticals, Inc., priority 2021, published 2024).

Protein sequences, listed by entry. Tags and fused reporters are not part of them.
UniProt P29597, whole entry: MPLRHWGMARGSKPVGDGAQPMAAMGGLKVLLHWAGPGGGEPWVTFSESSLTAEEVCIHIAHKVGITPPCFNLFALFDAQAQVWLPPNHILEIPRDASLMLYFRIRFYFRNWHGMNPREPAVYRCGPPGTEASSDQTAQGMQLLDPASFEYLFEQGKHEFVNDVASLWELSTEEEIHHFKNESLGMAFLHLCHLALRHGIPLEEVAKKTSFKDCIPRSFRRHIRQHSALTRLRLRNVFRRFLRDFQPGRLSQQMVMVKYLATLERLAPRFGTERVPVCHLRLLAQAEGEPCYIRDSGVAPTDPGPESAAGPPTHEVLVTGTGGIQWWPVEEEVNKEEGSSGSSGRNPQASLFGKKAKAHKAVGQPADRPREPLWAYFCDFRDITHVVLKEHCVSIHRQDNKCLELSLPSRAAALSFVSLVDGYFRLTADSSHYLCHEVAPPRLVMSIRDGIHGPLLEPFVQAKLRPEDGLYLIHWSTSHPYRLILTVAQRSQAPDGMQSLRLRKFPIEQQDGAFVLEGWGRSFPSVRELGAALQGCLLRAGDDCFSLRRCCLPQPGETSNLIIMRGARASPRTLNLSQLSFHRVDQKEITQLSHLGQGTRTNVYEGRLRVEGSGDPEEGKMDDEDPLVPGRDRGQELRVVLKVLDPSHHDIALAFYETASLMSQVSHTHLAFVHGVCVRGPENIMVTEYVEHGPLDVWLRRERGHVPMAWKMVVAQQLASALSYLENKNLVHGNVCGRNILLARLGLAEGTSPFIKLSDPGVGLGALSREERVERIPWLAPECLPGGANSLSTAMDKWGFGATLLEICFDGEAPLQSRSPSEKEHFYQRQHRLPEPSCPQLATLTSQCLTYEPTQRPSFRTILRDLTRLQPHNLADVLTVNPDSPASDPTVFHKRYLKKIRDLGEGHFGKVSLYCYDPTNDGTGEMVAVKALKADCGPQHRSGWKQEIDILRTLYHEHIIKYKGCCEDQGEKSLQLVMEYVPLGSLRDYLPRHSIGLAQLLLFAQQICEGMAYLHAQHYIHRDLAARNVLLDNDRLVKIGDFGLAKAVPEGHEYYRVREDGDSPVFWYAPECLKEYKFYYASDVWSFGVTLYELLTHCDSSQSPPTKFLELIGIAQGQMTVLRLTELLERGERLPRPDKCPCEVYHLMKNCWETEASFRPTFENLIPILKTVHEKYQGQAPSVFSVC
UniProt P23458, whole entry: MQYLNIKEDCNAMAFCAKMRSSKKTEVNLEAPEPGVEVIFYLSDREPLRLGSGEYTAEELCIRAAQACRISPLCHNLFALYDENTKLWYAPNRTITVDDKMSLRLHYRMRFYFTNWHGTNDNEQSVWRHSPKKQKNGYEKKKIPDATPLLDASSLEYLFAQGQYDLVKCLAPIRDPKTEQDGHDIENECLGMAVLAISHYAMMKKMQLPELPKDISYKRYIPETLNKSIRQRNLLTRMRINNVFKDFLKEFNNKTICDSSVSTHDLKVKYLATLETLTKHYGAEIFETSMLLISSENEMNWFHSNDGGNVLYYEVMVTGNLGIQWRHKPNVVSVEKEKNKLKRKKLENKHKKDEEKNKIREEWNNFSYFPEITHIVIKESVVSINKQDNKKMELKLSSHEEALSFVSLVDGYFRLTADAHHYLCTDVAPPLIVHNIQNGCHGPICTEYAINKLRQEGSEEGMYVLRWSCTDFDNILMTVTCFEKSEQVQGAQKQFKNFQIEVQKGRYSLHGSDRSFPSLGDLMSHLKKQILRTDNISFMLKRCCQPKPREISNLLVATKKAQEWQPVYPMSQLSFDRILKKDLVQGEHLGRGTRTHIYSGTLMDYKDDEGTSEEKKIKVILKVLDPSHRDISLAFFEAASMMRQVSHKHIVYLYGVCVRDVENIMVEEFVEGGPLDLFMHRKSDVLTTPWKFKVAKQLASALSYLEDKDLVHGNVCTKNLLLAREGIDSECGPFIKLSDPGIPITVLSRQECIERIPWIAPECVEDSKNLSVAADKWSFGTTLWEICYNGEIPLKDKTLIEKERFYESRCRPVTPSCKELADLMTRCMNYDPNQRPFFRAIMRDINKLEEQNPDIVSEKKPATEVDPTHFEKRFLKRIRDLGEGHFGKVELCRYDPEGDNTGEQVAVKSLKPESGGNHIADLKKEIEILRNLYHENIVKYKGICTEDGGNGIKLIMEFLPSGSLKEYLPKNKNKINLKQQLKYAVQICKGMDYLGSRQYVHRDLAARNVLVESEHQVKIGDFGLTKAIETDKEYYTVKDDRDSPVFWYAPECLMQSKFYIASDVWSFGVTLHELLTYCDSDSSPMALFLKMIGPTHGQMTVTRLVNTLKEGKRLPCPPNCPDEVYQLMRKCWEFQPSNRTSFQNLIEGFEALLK

Structures are written as SMILES.

The target in one assay is TYK2 (Homo sapiens (Human), UniProt P29597). The assay is described as follows: JAK kinase assay (KINASE-GLO luminescent), TYK2 enzyme. Type of assay: biochemical. The note with it: read-out: IC50 TYK2; TYK2 enzyme 10 nM, Abl peptide substrate.
For a further assay, the target named is JAK1 (Homo sapiens (Human), UniProt P23458). As to the kind of experiment: JAK kinase assay (KINASE-GLO luminescent), JAK1 enzyme. Type of assay: biochemical. The note with it: read-out: IC50 JAK1; JAK1 enzyme 10 nM, Abl peptide substrate. Background: In Kinase-Glo more light means more ATP remaining.

A word on the IC50: it is the midpoint of a concentration-inhibition curve.

As to `Cc1cnc(Nc2cnn(C)c2)nc1N1CC(CC#N)(N2CCN3CC4(CC4)C[C@H]3C2)C1`, the IC50 was < 0.02 µM on TYK2 and < 0.01 µM on JAK1.

Consider `Cc1cnc(Nc2ccccc2)nc1N1CC(CC#N)(N2CCN(C)CC2)C1`, for which the IC50 was < 0.05 µM on TYK2 and < 0.1 µM on JAK1.
